Literature values in patent US20060281813A1, “Methods of treating hyperproliferative cell disorders” (priority 2003, published 2006).
Where two headings read alike, the source gives them in different places.

Test system: breast cancer
Conditions: cited from earlier work

Herceptin: a targeted antibody to Her2/neu
response rate (in combination with chemotherapy): 30-50% | response rate (single agent, breast cancer): 16%
